# Test results as given in article PMC11078990, “Identification and characterization of small molecule inhibitors of the LINE-1 retrotransposon endonuclease” (Nature Communications, 2024).
# Chains of the proteins cited; added tags and fusions are not shown. Lines headed by an entry give the natural chain unless they say otherwise; changes in a name come on top.
# UniProt O00370: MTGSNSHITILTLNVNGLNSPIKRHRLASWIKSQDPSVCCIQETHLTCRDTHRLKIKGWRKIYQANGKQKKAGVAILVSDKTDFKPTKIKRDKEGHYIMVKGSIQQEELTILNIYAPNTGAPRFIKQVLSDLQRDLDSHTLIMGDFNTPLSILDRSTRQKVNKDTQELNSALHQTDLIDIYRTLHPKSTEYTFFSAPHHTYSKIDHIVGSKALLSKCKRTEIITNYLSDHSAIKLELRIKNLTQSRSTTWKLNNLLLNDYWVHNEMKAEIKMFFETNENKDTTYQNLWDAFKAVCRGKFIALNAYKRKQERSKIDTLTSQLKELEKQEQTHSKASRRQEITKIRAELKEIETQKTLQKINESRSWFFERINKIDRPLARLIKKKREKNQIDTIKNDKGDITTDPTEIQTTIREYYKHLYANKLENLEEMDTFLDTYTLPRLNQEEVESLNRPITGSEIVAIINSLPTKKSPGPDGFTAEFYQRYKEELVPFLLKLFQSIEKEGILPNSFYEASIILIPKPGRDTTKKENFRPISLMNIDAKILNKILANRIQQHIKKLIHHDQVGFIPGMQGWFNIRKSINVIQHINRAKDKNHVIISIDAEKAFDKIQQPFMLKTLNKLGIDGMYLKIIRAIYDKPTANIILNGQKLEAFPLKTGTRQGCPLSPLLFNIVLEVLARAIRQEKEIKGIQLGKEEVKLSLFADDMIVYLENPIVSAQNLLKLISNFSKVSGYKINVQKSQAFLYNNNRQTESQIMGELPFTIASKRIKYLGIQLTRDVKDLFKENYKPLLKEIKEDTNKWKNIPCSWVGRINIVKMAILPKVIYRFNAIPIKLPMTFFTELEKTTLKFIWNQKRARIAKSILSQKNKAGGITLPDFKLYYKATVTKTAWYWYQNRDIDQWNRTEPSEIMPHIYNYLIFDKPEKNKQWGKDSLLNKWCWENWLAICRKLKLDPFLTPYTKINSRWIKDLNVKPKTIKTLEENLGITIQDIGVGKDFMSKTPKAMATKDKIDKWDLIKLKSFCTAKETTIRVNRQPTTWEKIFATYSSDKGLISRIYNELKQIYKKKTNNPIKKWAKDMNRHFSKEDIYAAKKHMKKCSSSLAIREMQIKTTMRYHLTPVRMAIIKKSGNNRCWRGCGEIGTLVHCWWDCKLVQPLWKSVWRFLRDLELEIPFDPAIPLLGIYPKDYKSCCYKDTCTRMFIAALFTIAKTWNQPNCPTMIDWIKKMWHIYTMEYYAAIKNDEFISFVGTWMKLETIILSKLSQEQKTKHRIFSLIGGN
# “And” between values parts separate entries of the source, which are not always exact repeats. Identical values can stand only once. Like-named read-outs stand apart in the source and are kept apart here.
# Legend:
# [1] = target: L1 EN (LINE-1 retrotransposon endonuclease domain) (Homo sapiens, UniProt O00370, N5T); experiment: Fluorescent oligonucleotide EN nicking activity assay; assay type: biochemical
# [2] = target: EN (Homo sapiens, UniProt O00370, N5T); experiment: Spectral shift binding assay (Monolith X) with fluorescently labeled EN
smiles,measurement,setting,value
COc1ccc2c(c1)C(=O)N(CCc1ccc(S(=O)(=O)NC(=O)NC3CCCCC3)cc1)C(=O)C2(C)C [AD12],IC50,"[1]; Replicate 1-3 of the representative experiment of Fig. 2b, read-out: IC50 (μM), technical replicates",578 µM and 573 µM and 539 µM
same,IC50,"[1]; average of 3 technical replicates, representative experiment of Fig. 2b, read-out: IC50 (μM), average",563 µM
same,IC50,"[1]; independent experiments (Replicate 1-6), source data of Table 1, read-out: IC50 replicates",622 µM and 563 µM and 829 µM
same,IC50,"[1]; mean ± s.d., at least 3 independent experiments, read-out: IC50",671 ± 140 µM
same,Kd,"[2]; independent experiments (Replicate 1-5), source data of Table 1, read-out: Kd replicates",736 µM and 367 µM and 1160 µM
same,Kd,"[2]; mean ± s.d., at least 3 independent spectral shift experiments, N.D. = binding not detected, read-out: Kd",756 ± 399 µM
same,Kd,"[2]; spectral shift assay, Figure 3, Replicate 1, read-out: Kd, Replicate 1",671 µM
same,Kd,"[2]; spectral shift assay, Figure 3, Replicate 2, read-out: Kd, Replicate 2",688 µM
same,Kd,"[2]; spectral shift assay, Figure 3, Replicate 3, read-out: Kd, Replicate 3",849 µM
same,Kd,"[2]; spectral shift assay, Figure 3, average of 3 replicates, read-out: Kd, average",736 µM
